Experiments:
[1] = biological target: T1, 5-hydroxytryptamine receptor 4 (Rattus norvegicus, UniProt Q62758); assay: 5-hydroxytryptamine 4 receptor agonist activity was determined by the relaxation of the carbachol-contracted rat esophageal tunica muscularis mucosae; format: functional
[2] = biological target: T1, 5-hydroxytryptamine receptor 4; assay: Binding affinity against 5-hydroxytryptamine 4 receptor using [3H]GR-113808 as radioligand in rat striatum; format: tissue-based

Chains of the proteins cited; added tags and fusions are not shown. Lines headed by an entry give the natural chain unless they say otherwise; changes in a name come on top.
UniProt Q62758: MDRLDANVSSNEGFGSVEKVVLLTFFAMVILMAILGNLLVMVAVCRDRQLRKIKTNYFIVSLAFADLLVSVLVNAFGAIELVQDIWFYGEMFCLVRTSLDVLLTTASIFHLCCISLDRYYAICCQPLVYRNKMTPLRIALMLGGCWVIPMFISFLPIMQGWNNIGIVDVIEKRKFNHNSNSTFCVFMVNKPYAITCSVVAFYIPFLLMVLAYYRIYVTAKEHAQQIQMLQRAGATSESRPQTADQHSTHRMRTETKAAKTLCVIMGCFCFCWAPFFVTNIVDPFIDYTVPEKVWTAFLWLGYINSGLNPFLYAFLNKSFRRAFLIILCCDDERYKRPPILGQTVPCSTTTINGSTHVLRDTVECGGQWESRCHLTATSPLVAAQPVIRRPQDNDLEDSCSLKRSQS

SMILES	IC50 [1] [nM]	Ki [2] [nM]
NCCc1c[nH]c2ccc(O)cc12 [SEROTONIN]	3.7	–
CCN(CC)CCNC(=O)c1cc(Cl)c(N)cc1OC [METOCLOPRAMIDE]	–	975
